Drawing on PubChem BioAssay AID493216 (National Center for Advancing Translational Sciences (NCATS), 2011), this text covers Potency for one compound.

The chains behind the UniProt entries cited, without tags or fusion partners. Where a name states a change or a piece, a line headed by the entry shows the natural chain unless it says otherwise.
UniProt P18054: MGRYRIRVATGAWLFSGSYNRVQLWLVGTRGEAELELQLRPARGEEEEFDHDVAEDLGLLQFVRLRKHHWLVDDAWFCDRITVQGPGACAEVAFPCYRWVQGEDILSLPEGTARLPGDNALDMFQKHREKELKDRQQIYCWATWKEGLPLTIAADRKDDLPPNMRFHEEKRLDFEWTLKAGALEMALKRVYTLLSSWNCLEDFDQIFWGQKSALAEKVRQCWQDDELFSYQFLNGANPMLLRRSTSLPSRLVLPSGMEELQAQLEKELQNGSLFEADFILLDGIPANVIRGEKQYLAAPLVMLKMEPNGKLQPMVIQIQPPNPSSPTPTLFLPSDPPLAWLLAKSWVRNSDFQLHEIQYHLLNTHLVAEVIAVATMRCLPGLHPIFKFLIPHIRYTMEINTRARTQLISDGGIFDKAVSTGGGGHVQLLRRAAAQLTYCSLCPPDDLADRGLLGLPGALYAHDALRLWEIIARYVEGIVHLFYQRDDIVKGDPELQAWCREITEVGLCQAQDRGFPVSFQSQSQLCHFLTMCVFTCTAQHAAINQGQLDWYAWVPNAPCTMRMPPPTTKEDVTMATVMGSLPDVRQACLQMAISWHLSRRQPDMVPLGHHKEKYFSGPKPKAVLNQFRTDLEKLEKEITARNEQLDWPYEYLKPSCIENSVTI

The hits were mostly taken out for another list; the other results follow. The source made the active and inactive calls. Calls follow the shape of the full dose curve.

The assay deals with Polyunsaturated fatty acid lipoxygenase ALOX12 (Homo sapiens) (UniProt P18054). The assay is described as follows: Inhibitors of 12-hLO (12-human lipoxygenase): Cuvette-Based Hit Assay for Validation of Followup Compounds. The note with it: purified 12-hLO, cuvette absorbance 234 nm. As to the method: The enzyme activity of 12-hLO was determined by a direct measurement of product formation by monitoring the absorbance at 234 nm in a 2 mL cuvette. IC50 values of inhibitors were obtained by measuring the enzymatic rate at a variety of concentrations (Carroll et al, Segraves et al). This assay was used to validate actives or inconclusive putative inhibitors identified in the primary screen (see related BioAssay AIDs). Assay Provider: Holman, T.R., University of California, Santa Cruz Screening Center PI: Austin, Christopher P. Screening Center: NIH Chemical Genomics Center
For control experiments, 2 mL of substrate buffer (10 uM arachidonic acid / 25 mM HEPES / 0.01% (v/v) Triton X-100, pH 8.0) was aliquoted in a cuvette with a magnetic stir bar. After equilibrium was ensured, an aliquot of inhibitor solvent was added (DMSO), and equilibrium was once again assured. The reaction was started by adding enzyme to the cuvette and the reaction was followed until completed. The inhibition experiments were performed as above, except the actual inhibitory compound was added instead of vehicle. To achieve an IC50, typically 5 concentrations of the inhibitor were studied. If the inhibitor concentration was constant, then five different reaction volumes were used. […] 3; No change in absorbance ensured. […] 5; No change in absorbance ensured. […]

`COc1cccc(CNc2ccc(S(=O)(=O)Nc3nccs3)cc2)c1O`: the Potency is active: 4.71 µM.
